AlphaSeq binding of Ab-14 light chain variants to a spike HR2 peptide

Data: MIT Lincoln Laboratory AlphaSeq set, Li et al. 2023, doi:10.1038/s41467-023-39022-2, as distributed in FLAb.

All variants were tested on one target, the spike HR2 peptide PDVDLGDISGINAS (SARS-CoV-2).

Parent: Ab-14, a human scFv built as VH, a 15-residue (Gly4Ser)3 linker, VL. Only the CDRs of the light chain vary.
VH: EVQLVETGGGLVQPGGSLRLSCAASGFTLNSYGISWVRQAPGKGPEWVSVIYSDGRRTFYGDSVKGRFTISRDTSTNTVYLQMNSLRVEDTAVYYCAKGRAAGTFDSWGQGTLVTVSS
VL: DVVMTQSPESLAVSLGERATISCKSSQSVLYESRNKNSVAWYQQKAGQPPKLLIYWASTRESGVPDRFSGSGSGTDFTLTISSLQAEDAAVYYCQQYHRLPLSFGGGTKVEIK

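The starting antibody came from a phage panning campaign against this peptide. This is the validation round: designs drawn from the data on random variants, tested in the same kind of assay. Group labels follow the data file (Ctrl: baseline library sampled from a position-specific scoring matrix, with some repeated check sequences; En: ensemble of fine-tuned language models; GP: Gaussian process model; HC: hill climbing; Gen: genetic algorithm; Gibbs: Gibbs sampling; a sequence that several methods proposed may carry one label only). Affinity was read by AlphaSeq, a pooled yeast mating assay with surface-displayed partners. Mating (16 h, 30 °C) was followed by selection of diploids and sequencing of their barcodes. Read counts were normalised to the haploid input and turned into Kd by a linear fit to BCL2-family pairs of known affinity, for each replicate. Mating was done six times.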

Variants are written as CDR1, CDR2 and CDR3 of the light chain (limits as in the source). Parent: KSSQSVLYESRNKNSVA, WASTRES, QQYHRLPLS.
Kd is apparent (estimated from mating counts) and averaged on the log scale over replicates with a signal. Smaller is tighter.
"nd" marks a missing value. The strain was present, yet no cells mated with the target were sequenced in any replicate, which points to weak or no binding.
The parent sequence was in this pool as ten entries: three were never detected, three once, and four in most replicates, with averages from 2.2 nM to 240 nM.
The range of this assay differs from that of the first round, and the authors advise against merging the two.
The authors' rule: three or more of the six replicates give a measured affinity, fewer mean a poor binder.
Nonspecific signal, from three strains lacking the peptide, appeared in 4% of pairings of all light chain designs, centred on 430 nM (5% of these signals below 38 nM); values are not corrected for it.

CDR-L1	CDR-L2	CDR-L3	group	Kd (apparent)	seen in
AMQMERLGQGQYQNNIA	NQDLRTA	QQYYMLPLV	En_Gibbs	4.0 nM	6/6
KITLIFSNKGNQRHSVA	NAETLAH	QQYYRLPFM	En_Gibbs	57 nM	6/6
KSSQSVLYEARNKNSVA	WASTRES	QQVHRHPLS	Ctrl	nd	0/6
KFSQSVLYESRNKNSVA	DASTRES	QQYQRLPLS	GP_HC	520 pM	6/6
KISGSVMMLSRNKNSVA	EANTRES	QQYHRLPLS	GP_Gibbs	770 pM	6/6
KLSATTRYESQNKNSIA	EMTTRES	QCYHRLPLS	En_HC	6.2 nM	6/6
KLQQQTLYESRNKNSVA	SASTREE	QQYHRLPLS	GP_HC	750 pM	6/6
TIGQMFNGVSRNRNSVA	QASTRES	QSYDRLPLS	En_HC	59 nM	6/6
TISGVMMQLSHSKNNVA	EVSTRLD	QQYVRLPLE	En_Gen	2.6 nM	6/6
KLSQSQLYESRNKNNVA	SASTRES	QQYHRLPLS	GP_Gen	340 pM	6/6
KLSQSVWYESRNKNSVA	NASQREQ	QQYHRLPLS	GP_Gen	500 pM	6/6
KLSQSYLYESRNKNSVA	NASTRSS	QQYHRLPLS	GP_Gen	640 pM	6/6
KFSQSVLGESRNENSVA	GASTRES	QQYHMLPLS	Ctrl	1.6 nM	6/6
KLSQSGLYESRNKNSVA	EASTRES	QQYHRLPLS	GP_Gen	500 pM	6/6
KLSQSDLYESRMSNSVA	MASTRMV	QQYHRLPLS	GP_Gibbs	1.5 nM	6/6
YLSQSVEYESRNKNSVA	SASTREY	QQYHRLPLA	GP_Gibbs	3.7 nM	6/6
KISQMVRVGSTVSNSIA	EMVTRVK	QQYHRLPLA	En_Gen	43 nM	2/6
KIGATLNMMSHKKNNVA	DLVTREQ	QQYHRLPLS	En_Gen	6.3 nM	6/6
KSGQEVLYQSRNKNSVA	GASTRES	QQYHRLPLS	GP_HC	1.6 nM	6/6
KLSQSVPYEERCFNSVA	HASQRES	QQYHRLPLS	GP_Gibbs	1.6 nM	6/6
KLSQSGLVESSNVNSVA	WASTREH	QQYHRLPLS	Ctrl	10 nM	6/6
KISMTYRYEQQASNSIA	EMTTRAE	QSYHRLPLS	En_HC	3.5 nM	6/6
KLLQSVNYGMRALNSVA	QMETRED	QQYNRLPLS	En_HC	49 nM	4/6
ILNLTPMEHQIHMDAIA	QEAIRNA	QQYARLPLS	En_Gibbs	23 nM	6/6
ALSQSMDMTSRNHNSVA	DLTTREN	QQYHRLPLS	En_HC	960 pM	6/6
KFSQSVLYESRGKNSVA	WASTRES	QQYHRLPLS	Ctrl	31 nM	6/6
KLDMSDLMESRNWNAVA	SASTREE	QQYHRLPLS	GP_Gibbs	740 pM	6/6
NVNVSEDQWPSSKNAIA	QTTCRNL	QQYAHLPLS	En_Gibbs	3.4 nM	6/6
MLSEVLHMLGVMKNSIA	DLVLRAN	QQYHRLPLA	En_Gen	nd	0/6
KLSQSVEYESRNKNSVA	WASTRES	QQYHRLPLS	Ctrl	3.2 nM	6/6
KSSQSVLYESTNKVSVA	WASTRES	QQYHRLPLS	Ctrl	44 nM	2/6
KSSQSVLGESRNKNSVA	WALTRES	GKYHRLPLS	Ctrl	nd	0/6
MISQSFLIGMRAKNSVA	QTSTRES	QQYDRLPLS	En_HC	12 nM	6/6
KIYHGVTGTSRKGNSVA	QAETRLD	QQYFRLPLM	En_HC	nd	0/6
KARQSNLYESRNQNSVA	SASQRLD	QQYHRLPLS	GP_Gibbs	2.5 nM	6/6
KHEELVEYESRNKNSVA	NASTRLS	QQYHRLPLS	GP_Gibbs	400 pM	6/6
KSSQSVLYESRNKNSVA	AASTRES	QQYHRLFLS	Ctrl	4.8 nM	6/6
KFSQSVLYESRNKNAVA	WASTRES	QQYHRLPLS	Ctrl	1.1 nM	6/6
KSSQSVEYEERNKNSVA	WASTQES	QQYHRLPLS	Ctrl	nd	0/6
KLMPSMEYESRMKNSVA	EASVREE	QQYHRLPLS	GP_Gibbs	1.3 nM	6/6
KLSQSQLYESRQKNSVA	NASTRES	QQYHRLPLS	GP_Gen	520 pM	6/6
KISMSYRYESEEKNSIA	EMTTREE	QSYHRLPLS	En_HC	76 nM	4/6
KLSQSWLYESRNKNSVA	GASTRES	QDYHRLPLS	GP_Gen	1.0 nM	6/6
KSSQSVLYSSYNKNSVA	FASTRED	QQYHRLPLS	Ctrl	110 nM	1/6
KSSQSILYESRNKNSVA	WASTREP	EQYHRLPLS	Ctrl	nd	0/6
FLAYASDQTGLQKNNIA	QVNLKEN	QQYERLPLA	En_Gibbs	28 nM	6/6
KLKYQADHYGMNQNNVA	QADIRAP	QQYNKLPLN	En_Gibbs	1.2 nM	6/6
KLGMTVGYEQRNKSRVA	DNSTRES	QQYDRLPLS	En_HC	160 nM	4/6
KFSQSVLYESRMKNSVA	NASTRES	QWYHRLPLS	GP_HC	4.9 nM	6/6
IISDSVLTLSRNKNSVA	DNSTRES	QQYDRLPLS	En_HC	14 nM	3/6
KSSQSELYESRNKNSVA	NARTRES	QQYHRLPLS	Ctrl	3.4 nM	6/6
KSSQSGLYESRNKNSVA	SAETRES	QQYHRLPLS	Ctrl	1.9 nM	6/6
IVSQLMLWGYHAKNSIA	EAETRGN	QQYDRLPLF	En_Gen	nd	0/6
TIGQTLMQGIRNRSNVA	EVSQRLN	QQYDRLPLI	En_Gen	nd	0/6
YISMMHAGQVNESSSIA	NAEQTED	QQYHELPLV	En_Gibbs	nd	0/6
SLGLVTMLEYAGRNNVA	NNSTREQ	QQYDRLPLS	En_Gen	47 nM	6/6
NISIHGMDENSTRNHIA	DTNCRDF	QQYWHLPLS	En_Gibbs	4.8 nM	6/6
KLSQSDLYESRNKNSVA	QASTREQ	QQYHRLPLS	GP_Gen	47 pM	5/6
MLRFDITDGQKNWNNIA	ETSELGA	QQYMHLPLG	En_Gibbs	1.2 nM	6/6
KSSQSVLYESRNNNSVA	WAETRES	QQYHRLPLV	Ctrl	2.6 µM	4/6
KLSMAYRYESENKNSIA	ELVTRMS	QQYHRLPLS	En_HC	11 nM	6/6
KMPQSWLYESQNSNSVA	HASQRMS	QQYHRLPLS	GP_Gibbs	580 pM	6/6
NIQNLGMENSVWKNSIA	DVNILEI	QQYWRLPLL	En_Gibbs	6.2 nM	6/6
KISQSVLMESRNCNSVA	DASTRES	QQYVRLPLS	GP_HC	1.1 nM	6/6
KSSKSVLPESRNKNSVA	WASTRES	QQYHRLPLS	Ctrl	250 nM	6/6
KSSQSVLYESDNKNDVA	WASTRLS	QQYHRLPLL	Ctrl	nd	0/6
KLTSVTGTEKVRGNNVA	EMETRES	QQYNRLPLS	En_Gen	2.6 nM	6/6
KFEQSWLYESRNVNSVA	QASTRSS	QQYHRLPLS	GP_Gibbs	640 pM	6/6
KSSQSILYESLNKNSVA	WASTRES	QQYHRLPLS	Ctrl	nd	0/6
KLSQSYEYESRNKNSVA	NASQREH	QQYHRLPLR	GP_Gibbs	590 pM	6/6
HSSPSVLYESRNKNSVA	NASTRET	QQYHRLPLQ	GP_HC	2.0 nM	6/6
KLQLSMPYESRMKNSVA	HASVRES	QQYHRLPLS	GP_Gibbs	1.5 nM	6/6
TIGSTLMYGMRNRSNVA	EVSERCN	QQYDRLPLL	En_Gen	24 nM	6/6
HIDWLNRGETLKKDDIA	NATHREQ	QQYFHLPLV	En_Gibbs	4.3 nM	6/6
KISQKVLYESRNKNSVA	GASTRES	QQYHRLPLS	GP_HC	12 nM	6/6
KLMQSVLYESRNKNSVA	EASQRES	QQYHRLPLS	GP_Gen	2.9 nM	6/6

Top 5 of the variants detected in all replicates, tightest first:

CDR-L1	CDR-L2	CDR-L3	group	Kd (apparent)	seen in
KLSQSQLYESRNKNNVA	SASTRES	QQYHRLPLS	GP_Gen	340 pM	6/6
KHEELVEYESRNKNSVA	NASTRLS	QQYHRLPLS	GP_Gibbs	400 pM	6/6
KLSQSVWYESRNKNSVA	NASQREQ	QQYHRLPLS	GP_Gen	500 pM	6/6
KLSQSGLYESRNKNSVA	EASTRES	QQYHRLPLS	GP_Gen	500 pM	6/6
KLSQSQLYESRQKNSVA	NASTRES	QQYHRLPLS	GP_Gen	520 pM	6/6